# Laboratory results published in patent publication US20120295838A1, “Selective poly-substituted glycine antibiotics and related compositions” (priority 2008, published 2012).
# Legend:
# Assay type in all cases: cell-based
# B. subtilis ATCC 6633 = system: B. subtilis ATCC 6633
# Protocol: (§1) Whereas the preceding generation of molecules was designed to elucidate structure function relationships of specific molecular parameters (chirality, length, hydrophobicity, etc.), another generation compounds were designed explicitly to explore effects on selectivity. Antimicrobial activity of these compounds was tested against bacterial strains E. coli (ATTC 35218) and B. subtilis (ATTC 6633) in cation-adjusted MHB using the microdilution protocols previously described. The sequences, antimicrobial activities, hemolytic activities, and metabolic inhibitory concentrations against NIH 3T3 mouse fibroblast cells are summarized in Table 3 and the rationale of their design is described below.
# (§2) Screening antibacterial assays. MICs were determined in 96-well microtiter plates in accordance with CLSI M7-A6 protocols. Peptoid solutions with 50 μL total volume were prepared using 2:1 serial dilutions. 50 i—tL of bacteria inoculum (1×10^6 CFU/mL) prepared in cation-adjusted Mueller-Hinton broth (CAMHB) was added to test wells. Control wells contained 100 μL MHB (no growth) or 50 μL inoculums with 50 μL MHB with no peptoid. […] Reported values were reproducible over three experiments, each containing two parallel trials.
# (§3) Antibacterial Assays for Compositions. MICs were determined according to CLSI M7-A6 protocols in a 96-well microtiter plate. In test wells, 50 μL bacterial inoculum (1×10^6 CFU/ml) in cation-adjusted Mueller-Hinton broth (CAMHB) was added to 50 μL peptoid solution in CAMHB (prepared by 1:2 serial dilutions). Positive controls contained 50 μL inoculum and 50 μL CAMHB without peptoid. […] MIC values reported were reproducible between three independent experimental replicates, each consisting of two parallel trials.
# human erythrocytes = experiment: Hemolysis assay
# E. coli ATCC 35218 = system: E. coli ATCC 35218
# Protocol: as §1, §2, §3
MIC for B. subtilis ATCC 6633 (B. subtilis ATCC 6633; ATCC 6633) [µM],MIC for E. coli ATCC 35218 (E. coli ATCC 35218) [µM],SMILES,"MIC for B. subtilis ATCC 6633 (B. subtilis ATCC 6633; Table 8, CAMHB) [µM]",HD10 (human erythrocytes) [µM],HD50 (human erythrocytes) [µM]
,,"CC[C@H](C)[C@H](NC(=O)CN)C(=O)NCC(=O)N[C@@H](C)C(=O)N[C@H](C(=O)N[C@@H](CC(C)C)C(=O)N[C@@H](CCCCN)C(=O)N[C@H](C(=O)N[C@@H](CC(C)C)C(=O)N[C@H](C(=O)N[C@H](C(=O)NCC(=O)N[C@@H](CC(C)C)C(=O)N1CCC[C@H]1C(=O)N[C@@H](C)C(=O)N[C@@H](CC(C)C)C(=O)N[C@H](C(=O)N[C@@H](CO)C(=O)N[C@@H](Cc1c[nH]c2ccccc12)C(=O)N[C@H](C(=O)N[C@@H](CCCCN)C(=O)N[C@@H](CCCNC(=N)N)C(=O)N[C@@H](CCCCN)C(=O)N[C@@H](CCCNC(=N)N)C(=O)N[C@@H](CCC(N)=O)C(=O)N[C@@H](CCC(N)=O)C(N)=O)[C@@H](C)CC)[C@@H](C)CC)[C@@H](C)O)[C@@H](C)O)C(C)C)C(C)C [melittin, reference compound]",1.6,,
0.78 to 1.6,25 to 50,"C[C@H](NCC(=O)N(CC(=O)N(CCCCN)CC(=O)N(CC(=O)N(CC(=O)N(CCCCN)CC(=O)N(CC(=O)N(CC(=O)N(CCCCN)CC(=O)N(CC(=O)N(CC(=O)N(CCCCN)CC(=O)N(CC(=O)N(CC(=O)N(CCCCN)CC(=O)N(CC(=O)N(CC(N)=O)[C@@H](C)c1ccccc1)[C@@H](C)c1ccccc1)[C@@H](C)c1ccccc1)[C@@H](C)c1ccccc1)[C@@H](C)c1ccccc1)[C@@H](C)c1ccccc1)[C@@H](C)c1ccccc1)[C@@H](C)c1ccccc1)[C@@H](C)c1ccccc1)[C@@H](C)c1ccccc1)[C@@H](C)c1ccccc1)c1ccccc1 [117 mer, H-Nspe-Nspe-(NLys-Nspe-Nspe)5-NH2]",,3,15

# Read-outs that look alike come from different tables or passages of the source.
